These results are taken from ChEMBL document CHEMBL1137386, “Pyrrolidine carboxamides as a novel class of inhibitors of enoyl acyl carrier protein reductase from Mycobacterium tuberculosis” (J Med Chem, 2006).

Bounds are passed on as bounds.

The experiment concerns the target T1, Enoyl-[acyl-carrier-protein] reductase [NADH] (Mycobacterium tuberculosis, UniProt P9WGR1).
T1 sequence (P9WGR1 whole entry): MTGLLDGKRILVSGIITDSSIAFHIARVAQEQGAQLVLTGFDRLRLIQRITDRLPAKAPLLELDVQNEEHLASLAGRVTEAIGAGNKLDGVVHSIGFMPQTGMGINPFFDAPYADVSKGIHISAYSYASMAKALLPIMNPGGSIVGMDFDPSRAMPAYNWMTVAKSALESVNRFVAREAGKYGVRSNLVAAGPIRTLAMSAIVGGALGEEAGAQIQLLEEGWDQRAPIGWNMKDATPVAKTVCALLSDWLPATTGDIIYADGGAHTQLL
Usually IC50 stands for the concentration at which inhibition is half-maximal. A high value points to weaker potency in that assay. Take `CCCOc1ccc(N2CC(C(=O)Nc3cccc(Cl)c3)CC2=O)cc1` (stereo not given): the IC50 was above 100 µM.
The value for `O=C(Nc1cccc(C(F)(F)F)c1)C1CC(=O)N(C2CCCCC2)C1` (stereo not given) was 3.51 µM.
The value for `O=C(Nc1cc(-c2ccccc2)c(O)c(-c2ccccc2)c1)C1CC(=O)N(C2CCCCCCC2)C1` (stereo not given) was 1.29 µM.
As for `O=C(C1CC(=O)N(C2CCCCC2)C1)N1CCc2ccccc21` (stereo not given), the IC50 was 5.1 µM.
The value for `O=C(C1CC(=O)N(C2CCCCC2)C1)N1CCN(C(c2ccccc2)c2ccc(F)cc2)CC1` (stereo not given) was 6.41 µM; that for `Cc1cc([N+](=O)[O-])ccc1NC(=O)C1CC(=O)N(C2CCCCC2)C1` (stereo not given) was 31.4 µM.
The figure for `Cc1c(Cl)cccc1NC(=O)C1CC(=O)N(c2cccc([N+](=O)[O-])c2)C1` (stereo not given) is above 100 µM.
Consider `O=C(C1CC(=O)N(C2CCCCC2)C1)N1CCN(C(c2ccccc2)c2ccc(Cl)cc2)CC1` (stereo not given), for which the IC50 amounted to 4.47 µM.
`Cc1c(Cl)cccc1NC(=O)C1CC(=O)N(c2ccc(OC(C)C)cc2)C1` (stereo not given): the IC50 is above 100 µM.
The figure for `Cc1ccc(N2CC(C(=O)Nc3cccc(Br)c3)CC2=O)cc1` (stereo not given) is above 100 µM; for `O=C(Nc1ccc(Br)cc1)C1CC(=O)N(C2CCCCC2)C1` (stereo not given) it is 28 µM; for `O=C(Nc1cc(C(F)(F)F)cc(C(F)(F)F)c1)C1CC(=O)N(C2CCCCC2)C1` (stereo not given) it is 3.67 µM.
As to `Cc1cccc(NC(=O)C2CC(=O)N(C3CCCCC3)C2)c1` (stereo not given), the IC50 was 16.8 µM.
Consider `O=C(Nc1ccc(F)c(Cl)c1)C1CC(=O)N(C2CCCCC2)C1` (stereo not given), for which inhibition was half-maximal at 14.8 µM (IC50).
The figure for `COc1ccc(Cl)cc1NC(=O)C1CC(=O)N(C2CCCCC2)C1` (stereo not given) is 1.6 µM; for `Cc1cccc(C)c1NC(=O)C1CC(=O)N(C2CCCCC2)C1` (stereo not given) it is above 100 µM; for `O=C(Nc1ccc(Cl)cc1Cl)C1CC(=O)N(C2CCCCC2)C1` (stereo not given) it is 56 µM.
The figure for `O=C(Nc1cc(F)cc(F)c1)C1CC(=O)N(C2CCCCC2)C1` (stereo not given) is 1.49 µM; for `O=C(Nc1ccc2c(c1)OCCO2)C1CC(=O)N(C2CCCCC2)C1` (stereo not given) it is above 100 µM; for `O=C(Nc1ccc(Oc2ccccc2)cc1)C1CC(=O)N(C2CCCCC2)C1` (stereo not given) it is above 100 µM.
With `Cc1cc(C)cc(NC(=O)C2CC(=O)N(C3CCCCC3)C2)c1` (stereo not given), 3.14 µM corresponded to half-maximal inhibition (IC50).
The figure for `Cc1ccc(N2CC(C(=O)Nc3cccc(Br)c3)CC2=O)cc1C` (stereo not given) is above 100 µM.
`Cc1ccc(C)c(NC(=O)C2CC(=O)N(C3CCCCC3)C2)c1` (stereo not given) registered an IC50 of 10 µM.
The value for `Cc1c(Cl)cccc1NC(=O)C1CC(=O)N(c2ccccc2)C1` (stereo not given) was above 100 µM; that for `O=C(Nc1ccc(Cl)cc1)C1CC(=O)N(C2CCCCC2)C1` (stereo not given) was above 100 µM.
The value for `COC(=O)c1ccccc1NC(=O)C1CC(=O)N(C2CCCCC2)C1` (stereo not given) was 34.9 µM; that for `Cc1ccc(N2CC(C(=O)Nc3cccc(Cl)c3C)CC2=O)cc1` (stereo not given) was above 100 µM; that for `CC(=O)c1ccc(NC(=O)C2CC(=O)N(C3CCCCC3)C2)cc1` (stereo not given) was 73.6 µM.
As for `Cc1cc(NC(=O)C2CC(=O)N(C3CCCCC3)C2)ccc1Br` (stereo not given), 37.4 µM corresponded to half-maximal inhibition (IC50).
`O=C(Nc1cccc(Br)c1)C1CC(=O)N(c2ccc(F)cc2)C1` (stereo not given) showed an IC50 of 29.2 µM.
The molecule `O=C(Nc1cc(-c2ccccc2)c(O)c(-c2ccccc2)c1)C1CC(=O)N(C2CCCCC2)C1` (stereo in doubt; p64) yielded an IC50 of 0.14 µM.
`Cc1c(Cl)cccc1NC(=O)C1CC(=O)N(C2CCCCC2)C1` (stereo not given) returned an IC50 of 23.1 µM.
The value for `O=C(Nc1cc(Cl)ccc1Cl)C1CC(=O)N(C2CCCCC2)C1` (stereo not given) was 56.5 µM; that for `O=C(C1CC(=O)N(C2CCCCC2)C1)N1CCN(C(c2ccc(F)cc2)c2ccc(F)cc2)CC1` (stereo not given) was 5.51 µM; that for `CCn1c2ccccc2c2cc(NC(=O)C3CC(=O)N(C4CCCCC4)C3)ccc21` (stereo not given) was 2.57 µM.
The value for `O=C(Nc1cccc(OCc2ccccc2)c1)C1CC(=O)N(C2CCCCC2)C1` (stereo not given) was 3.39 µM; that for `O=C(Nc1cccc(Cl)c1)C1CC(=O)N(c2ccccc2)C1` (stereo not given) was 3.94 µM.
`CC(=O)Nc1ccc(NC(=O)C2CC(=O)N(C3CCCCC3)C2)cc1` (stereo not given) showed a half-inhibitory concentration (IC50) above 100 µM.
The value for `Cc1ccc(C(c2ccccc2)N2CCN(C(=O)C3CC(=O)N(C4CCCCC4)C3)CC2)cc1` (stereo not given) was 5.18 µM; that for `Cc1c(Cl)cccc1NC(=O)C1CC(=O)N(c2ccc(Br)cc2)C1` (stereo not given) was above 100 µM.
The value for `O=C(Nc1ccc(I)cc1)C1CC(=O)N(C2CCCCC2)C1` (stereo not given) was 14.5 µM; that for `CC(C)c1cccc(NC(=O)C2CC(=O)N(C3CCCCC3)C2)c1` (stereo not given) was 5.55 µM; that for `O=C(Nc1cc(-c2ccccc2)c(O)c(-c2ccccc2)c1)C1CC(=O)N(C2CCCCC2)C1` (stereo not given) was 0.062 µM.
`O=C(Nc1cccc([N+](=O)[O-])c1)C1CC(=O)N(C2CCCCC2)C1` (stereo not given) showed an IC50 of 10.6 µM.
The value for `O=C(Nc1ccccc1Br)C1CC(=O)N(C2CCCCC2)C1` (stereo not given) was above 100 µM; that for `Cc1ccc(N2CC(C(=O)Nc3cccc(Cl)c3)CC2=O)cc1` (stereo not given) was above 100 µM; that for `O=C(Nc1cccc2c1Cc1ccccc1-2)C1CC(=O)N(C2CCCCC2)C1` (stereo not given) was 1.39 µM.
The value for `COc1cc(NC(=O)C2CC(=O)N(C3CCCCC3)C2)cc(C(F)(F)F)c1` (stereo not given) was 1.3 µM.
`O=C(Nc1cccc(Cl)c1)C1CC(=O)N(C2CCCCC2)C1` (stereo not given) showed an IC50 of 1.35 µM.
The figure for `CCOc1ccc(NC(=O)C2CC(=O)N(C3CCCCC3)C2)cc1` (stereo not given) is above 100 µM.
